pIC50: −log10 of the molar value. Like-named read-outs stand apart in the source and are kept apart here.
Legend:
Assay in all cases: biochemical
[1] = molecular target: A*0202 (Homo sapiens, UniProt P04439, D140Y/D185E/D98H/E176V/E277Q/G131W/G231S/I119L/I121R/I166T/I218V/L180W/L300P/L318F/N151K/N90K/P208A/P217A/Q67R/Q86G/Q94H/R138H/R169H/T345S)
[2] = molecular target: HLA-B*0702 (Homo sapiens, UniProt P01889)
[3] = molecular target: A*0206 (Homo sapiens, UniProt P04439, D140Y/D185E/D98H/E176V/E277Q/F33Y/G131W/G231S/I119V/I121R/I166T/I218V/L300P/L318F/N151K/N90K/P208A/P217A/Q86G/Q94H/R138H/R169H/T345S); conditions: A*0206 binding affinity, Table XXII
[4] = molecular target: A*6802 (Homo sapiens, UniProt P04439, A269V/D140Y/D185E/E176V/E277Q/E87N/F33Y/G231S/I121R/I166T/I218V/L180W/L300P/L318F/N151K/P208A/P217A/Q86R/R138H/R169H/S129P/T345S/V36M)
[5] = molecular target: A*0203 (Homo sapiens, UniProt P04439, A173T/D140Y/D185E/D98H/E277Q/G131W/G231S/I119V/I121R/I166T/I218V/L180W/L300P/L318F/N151K/N90K/P208A/P217A/Q86G/Q94H/R138H/R169H/T345S); conditions: A*0203 binding affinity, Table XXII
[6] = molecular target: HLA-A*0201 (Homo sapiens, UniProt P04439, D140Y/D185E/D98H/E176V/E277Q/G131W/G231S/I119V/I121R/I166T/I218V/L300P/L318F/N151K/N90K/P208A/P217A/Q86G/Q94H/R138H/R169H/T345S)

Chains of the proteins cited; added tags and fusions are not shown. Residues count along the entry.
UniProt P01889, 25-362: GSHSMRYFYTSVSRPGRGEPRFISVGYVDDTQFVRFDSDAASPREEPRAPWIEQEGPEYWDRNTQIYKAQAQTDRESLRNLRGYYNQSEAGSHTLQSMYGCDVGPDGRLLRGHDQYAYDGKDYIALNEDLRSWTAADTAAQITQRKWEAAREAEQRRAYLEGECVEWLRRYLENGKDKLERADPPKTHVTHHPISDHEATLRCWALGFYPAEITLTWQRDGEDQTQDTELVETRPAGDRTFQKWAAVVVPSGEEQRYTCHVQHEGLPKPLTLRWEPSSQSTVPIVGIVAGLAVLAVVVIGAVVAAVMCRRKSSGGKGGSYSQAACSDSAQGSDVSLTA

CC(C)C[C@H](NC(=O)[C@H](C)N)C(=O)N1CCC[C@H]1C(=O)N1CCC[C@H]1C(=O)N[C@H](C(=O)N[C@@H](C)C(=O)N1CCC[C@H]1C(=O)N[C@H](C(=O)O)C(C)C)C(C)C [p53.69L2V8]
pIC50 [1]: 5.14

CC[C@H](C)[C@H](NC(=O)[C@@H]1CCCN1C(=O)[C@H](C)NC(=O)[C@@H]1CCCN1C(=O)[C@H](C)NC(=O)[C@@H](NC(=O)[C@@H]1CCCN1C(=O)[C@@H]1CCCN1C(=O)[C@@H](N)Cc1ccccc1)C(C)C)C(=O)O [p53.70.F119]
pIC50 [2]: 6.56

CC(C)C[C@H](NC(=O)[C@@H](N)Cc1ccccc1)C(=O)N[C@@H](Cc1c[nH]cn1)C(=O)N[C@@H](CO)C(=O)NCC(=O)N[C@H](C(=O)N[C@@H](C)C(=O)N[C@@H](CCCCN)C(=O)N[C@@H](CO)C(=O)N[C@H](C(=O)O)C(C)C)[C@@H](C)O [p53.113]
pIC50 ([3]; A2 supermotif peptides): 5.33
pIC50 [4]: < 5.00

CC[C@H](NC(=O)[C@H](Cc1ccccc1)NC(=O)[C@H](CCSC)NC(=O)[C@H](CCCCN)NC(=O)[C@H](CC(N)=O)NC(=O)[C@H](CC(C)C)NC(=O)[C@H](C)N)C(=O)N[C@@H](CCC(N)=O)C(=O)N[C@H](C(=O)O)C(C)C [p53.129B7V9]
pIC50 ([5]; A2 supermotif analogs): 7.64
pIC50 ([3]; A2 supermotif analogs): 7.31
pIC50 [4]: < 5.00

CSCC[C@H](NC(=O)[C@H](Cc1c[nH]cn1)NC(=O)[C@H](CCC(N)=O)NC(=O)[C@H](CO)NC(=O)[C@H](CCC(N)=O)NC(=O)[C@@H](N)CCCCN)C(=O)N[C@H](C(=O)N[C@@H](CCC(=O)O)C(=O)N[C@H](C(=O)O)C(C)C)[C@@H](C)O [p53.164]
pIC50 ([6]; A*0201 binding affinity, Table XXII, A2 supermotif peptides): 6.30
pIC50 ([5]; A2 supermotif peptides): 6.77
pIC50 [4]: < 5.00

CC[C@H](C)[C@H](NC(=O)[C@H](CC(C)C)NC(=O)[C@H](Cc1c[nH]cn1)NC(=O)[C@H](CCC(N)=O)NC(=O)[C@@H]1CCCN1C(=O)[C@@H]1CCCN1C(=O)[C@H](C)NC(=O)[C@H](CC(C)C)NC(=O)CN)C(=O)N[C@@H](CCCNC(=N)N)C(=O)N[C@H](C(=O)O)C(C)C [p53.187]
pIC50 [6]: 7.10
pIC50 [1]: 7.41
pIC50 [4]: < 5.00

CC(C)[C@H](N)C(=O)N[C@H](C(=O)N[C@H](C(=O)N1CCC[C@H]1C(=O)N[C@@H](Cc1ccc(O)cc1)C(=O)N[C@@H](CCC(=O)O)C(=O)N1CCC[C@H]1C(=O)N1CCC[C@H]1C(=O)N[C@@H](CCC(=O)O)C(=O)N[C@H](C(=O)O)C(C)C)C(C)C)C(C)C [p53.216]
pIC50 ([6]; A*0201 binding affinity, Table XXII, A2 supermotif analogs): 6.21
pIC50 [4]: < 5.00

CC[C@H](C)[C@H](N)C(=O)N[C@@H](CC(C)C)C(=O)N[C@@H](CC(C)C)C(=O)N[C@@H](CCC(=O)O)C(=O)N[C@@H](CC(=O)O)C(=O)N[C@@H](CO)C(=O)N[C@@H](CO)C(=O)NCC(=O)N[C@@H](CC(N)=O)C(=O)N[C@@H](CC(C)C)C(=O)N[C@H](C(=O)O)C(C)C [p53.255L2V11]
pIC50 ([5]; A2 supermotif analogs): 7.15
pIC50 [4]: < 5.00

CC(C)C[C@H](NC(=O)[C@H](CC(C)C)NC(=O)[C@@H](N)CC(N)=O)C(=O)NCC(=O)N[C@@H](CCCNC(=N)N)C(=O)N[C@@H](CC(N)=O)C(=O)N[C@@H](CO)C(=O)N[C@@H](Cc1ccccc1)C(=O)N[C@@H](CCC(=O)O)C(=O)N[C@H](C(=O)O)C(C)C [p53.263]
pIC50 ([5]; A2 supermotif peptides): 5.60

Source: patent publication US20040048790A1, “Inducing cellular immune responses to p53 using peptide and nucleic acid compositions” (priority 1999, published 2004)
